# Experimental data as given in article PMC5908839 (Scientific Reports, 2018).
# By UniProt entry, the sequences of proteins in these tests, tags left out. Residues count along the entry.
# UniProt L0NML6, 27-304 limits assumed: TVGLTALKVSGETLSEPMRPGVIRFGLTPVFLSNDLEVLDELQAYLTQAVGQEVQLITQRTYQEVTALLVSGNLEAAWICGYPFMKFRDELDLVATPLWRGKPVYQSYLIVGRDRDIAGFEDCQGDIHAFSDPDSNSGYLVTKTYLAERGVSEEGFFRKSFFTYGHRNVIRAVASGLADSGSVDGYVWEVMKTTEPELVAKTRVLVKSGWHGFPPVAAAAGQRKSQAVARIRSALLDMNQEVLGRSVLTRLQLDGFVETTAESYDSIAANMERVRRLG
# Experiments:
# ArxX = ArxX (Alkalilimnicola ehrlichii, UniProt Q0AC64); test: ITC ([…] °C, pH […])
# AioX = AioX (Pseudorhizobium banfieldiae, UniProt L0NML6); test: ITC ([…] °C, pH […]) and X-ray crystal structure ([…] Å)
compound,measurement,setting,value
O[As](O)O,Kd,ArxX,0.311 µM
same,Kd,AioX,0.177 µM
